Common to all, as to test: Ki determination for immobilized VI16742: two consecutive incubations, control beads, ligand concentration and incubation time controls (Tables 7, 8)
Common to all, as to type: binding

By UniProt entry, the sequences of proteins in these tests, tags left out. Where a name states a change or a piece, a line headed by the entry shows the natural chain unless it says otherwise.
UniProt O60583: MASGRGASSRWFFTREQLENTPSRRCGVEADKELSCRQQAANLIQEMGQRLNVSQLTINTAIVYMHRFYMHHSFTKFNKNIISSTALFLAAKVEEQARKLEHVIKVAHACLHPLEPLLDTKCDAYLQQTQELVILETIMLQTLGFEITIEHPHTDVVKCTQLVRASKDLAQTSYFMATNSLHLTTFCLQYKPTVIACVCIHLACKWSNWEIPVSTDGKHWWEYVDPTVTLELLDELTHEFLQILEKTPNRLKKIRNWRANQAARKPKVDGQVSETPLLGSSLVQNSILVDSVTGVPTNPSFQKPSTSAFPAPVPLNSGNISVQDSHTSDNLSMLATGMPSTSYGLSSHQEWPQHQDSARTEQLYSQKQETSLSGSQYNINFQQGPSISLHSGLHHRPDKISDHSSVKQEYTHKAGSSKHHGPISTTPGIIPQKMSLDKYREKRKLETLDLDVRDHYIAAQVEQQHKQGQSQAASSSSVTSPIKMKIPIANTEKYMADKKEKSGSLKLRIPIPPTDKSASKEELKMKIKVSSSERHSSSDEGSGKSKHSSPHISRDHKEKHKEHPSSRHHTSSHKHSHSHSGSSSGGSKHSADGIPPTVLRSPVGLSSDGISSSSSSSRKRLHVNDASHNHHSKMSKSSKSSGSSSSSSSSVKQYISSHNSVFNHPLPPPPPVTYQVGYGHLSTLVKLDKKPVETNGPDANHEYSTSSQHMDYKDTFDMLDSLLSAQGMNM
UniProt P20248, whole entry: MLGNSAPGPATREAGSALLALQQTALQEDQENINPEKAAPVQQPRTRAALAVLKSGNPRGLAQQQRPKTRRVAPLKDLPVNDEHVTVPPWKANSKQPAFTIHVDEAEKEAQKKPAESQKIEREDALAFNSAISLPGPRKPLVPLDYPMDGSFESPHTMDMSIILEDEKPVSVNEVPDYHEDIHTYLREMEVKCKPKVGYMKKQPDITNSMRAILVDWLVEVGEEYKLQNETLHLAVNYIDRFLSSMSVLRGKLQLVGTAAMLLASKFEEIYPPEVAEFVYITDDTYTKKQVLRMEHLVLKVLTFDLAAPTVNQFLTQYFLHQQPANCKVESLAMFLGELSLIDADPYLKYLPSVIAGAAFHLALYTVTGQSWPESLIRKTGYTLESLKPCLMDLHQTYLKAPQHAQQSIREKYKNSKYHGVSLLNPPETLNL
UniProt P24863: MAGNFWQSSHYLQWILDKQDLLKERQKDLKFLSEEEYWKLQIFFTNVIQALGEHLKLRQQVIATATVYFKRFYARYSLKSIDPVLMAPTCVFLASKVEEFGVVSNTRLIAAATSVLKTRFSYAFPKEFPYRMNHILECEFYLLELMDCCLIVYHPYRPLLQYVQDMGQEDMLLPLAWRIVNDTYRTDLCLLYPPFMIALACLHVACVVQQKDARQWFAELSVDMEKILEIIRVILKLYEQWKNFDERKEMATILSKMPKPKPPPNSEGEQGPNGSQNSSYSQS
UniProt P35270: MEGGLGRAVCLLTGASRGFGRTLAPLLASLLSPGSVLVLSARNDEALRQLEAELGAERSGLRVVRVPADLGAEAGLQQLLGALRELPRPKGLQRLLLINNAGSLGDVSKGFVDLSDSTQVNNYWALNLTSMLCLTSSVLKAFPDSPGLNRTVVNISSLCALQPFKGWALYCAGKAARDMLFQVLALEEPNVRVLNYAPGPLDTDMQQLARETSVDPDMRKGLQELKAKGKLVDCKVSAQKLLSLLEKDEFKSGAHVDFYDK
UniProt P51617, whole entry: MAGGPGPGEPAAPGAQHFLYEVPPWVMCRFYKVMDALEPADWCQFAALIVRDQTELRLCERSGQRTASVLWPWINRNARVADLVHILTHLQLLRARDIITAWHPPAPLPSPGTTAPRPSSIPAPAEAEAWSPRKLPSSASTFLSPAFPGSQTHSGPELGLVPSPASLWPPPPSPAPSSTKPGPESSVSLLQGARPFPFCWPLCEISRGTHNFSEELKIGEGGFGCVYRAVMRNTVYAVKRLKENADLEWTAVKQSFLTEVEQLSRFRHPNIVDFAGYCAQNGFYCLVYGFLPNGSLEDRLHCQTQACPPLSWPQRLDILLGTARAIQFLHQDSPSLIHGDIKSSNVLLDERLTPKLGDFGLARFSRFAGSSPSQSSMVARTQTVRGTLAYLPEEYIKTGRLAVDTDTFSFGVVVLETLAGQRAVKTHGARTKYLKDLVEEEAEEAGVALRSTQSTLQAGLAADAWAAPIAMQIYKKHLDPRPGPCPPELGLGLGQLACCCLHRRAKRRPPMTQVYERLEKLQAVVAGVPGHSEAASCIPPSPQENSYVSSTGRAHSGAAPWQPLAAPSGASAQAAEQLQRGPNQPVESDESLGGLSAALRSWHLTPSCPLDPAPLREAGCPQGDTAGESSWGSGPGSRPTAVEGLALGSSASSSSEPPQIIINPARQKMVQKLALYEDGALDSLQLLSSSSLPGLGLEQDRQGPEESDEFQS
UniProt Q14289, whole entry: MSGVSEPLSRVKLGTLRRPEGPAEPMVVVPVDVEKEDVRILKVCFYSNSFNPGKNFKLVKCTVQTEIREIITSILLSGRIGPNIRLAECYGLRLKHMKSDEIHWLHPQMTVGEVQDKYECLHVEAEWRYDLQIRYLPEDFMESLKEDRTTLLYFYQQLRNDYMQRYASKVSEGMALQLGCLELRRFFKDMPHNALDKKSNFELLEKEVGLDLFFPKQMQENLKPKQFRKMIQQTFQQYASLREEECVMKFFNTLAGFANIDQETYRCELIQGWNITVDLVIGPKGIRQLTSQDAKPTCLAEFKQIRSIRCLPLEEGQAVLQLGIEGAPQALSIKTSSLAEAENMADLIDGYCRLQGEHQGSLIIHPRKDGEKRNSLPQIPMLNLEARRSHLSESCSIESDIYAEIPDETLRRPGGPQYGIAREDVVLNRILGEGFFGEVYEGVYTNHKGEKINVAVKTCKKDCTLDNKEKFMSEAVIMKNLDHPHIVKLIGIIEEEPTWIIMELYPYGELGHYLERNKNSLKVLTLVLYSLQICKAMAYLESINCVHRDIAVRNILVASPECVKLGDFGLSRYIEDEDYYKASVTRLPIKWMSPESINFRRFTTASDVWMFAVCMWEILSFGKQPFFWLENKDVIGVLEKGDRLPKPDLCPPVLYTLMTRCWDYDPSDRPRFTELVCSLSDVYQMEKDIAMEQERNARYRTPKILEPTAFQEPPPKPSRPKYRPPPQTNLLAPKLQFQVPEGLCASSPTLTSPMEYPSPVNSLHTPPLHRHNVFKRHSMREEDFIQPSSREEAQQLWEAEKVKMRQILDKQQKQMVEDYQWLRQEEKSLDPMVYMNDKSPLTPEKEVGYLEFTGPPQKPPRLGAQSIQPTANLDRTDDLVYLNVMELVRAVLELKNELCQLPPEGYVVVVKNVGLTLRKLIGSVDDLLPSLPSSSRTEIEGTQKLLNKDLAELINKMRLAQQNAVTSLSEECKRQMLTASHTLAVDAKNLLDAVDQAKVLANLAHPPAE
UniProt Q16584: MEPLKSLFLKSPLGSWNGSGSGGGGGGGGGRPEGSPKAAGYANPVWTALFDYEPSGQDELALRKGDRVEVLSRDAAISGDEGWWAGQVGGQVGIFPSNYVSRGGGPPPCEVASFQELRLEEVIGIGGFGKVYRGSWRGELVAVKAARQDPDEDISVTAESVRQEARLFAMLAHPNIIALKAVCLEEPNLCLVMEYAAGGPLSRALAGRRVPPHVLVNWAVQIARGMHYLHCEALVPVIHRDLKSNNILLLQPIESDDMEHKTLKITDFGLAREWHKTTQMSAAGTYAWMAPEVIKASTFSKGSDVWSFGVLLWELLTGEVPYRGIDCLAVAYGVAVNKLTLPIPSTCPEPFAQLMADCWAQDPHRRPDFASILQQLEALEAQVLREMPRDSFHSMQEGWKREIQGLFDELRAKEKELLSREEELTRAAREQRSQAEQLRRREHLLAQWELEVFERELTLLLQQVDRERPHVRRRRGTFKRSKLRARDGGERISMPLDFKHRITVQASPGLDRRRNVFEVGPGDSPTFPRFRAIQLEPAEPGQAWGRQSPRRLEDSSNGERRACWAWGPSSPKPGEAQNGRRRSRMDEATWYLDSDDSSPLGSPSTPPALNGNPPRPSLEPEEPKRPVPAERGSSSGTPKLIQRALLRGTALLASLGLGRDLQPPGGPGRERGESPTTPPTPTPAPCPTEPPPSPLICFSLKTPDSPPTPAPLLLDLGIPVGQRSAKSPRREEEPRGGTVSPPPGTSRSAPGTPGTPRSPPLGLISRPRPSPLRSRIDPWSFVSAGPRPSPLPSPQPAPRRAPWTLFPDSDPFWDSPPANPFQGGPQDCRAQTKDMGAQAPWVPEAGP

Assay [1] deals with T1, cellular target proteins in HeLa cell lysate (Homo sapiens, UniProt O00764).
T1 sequence (O00764 1-312): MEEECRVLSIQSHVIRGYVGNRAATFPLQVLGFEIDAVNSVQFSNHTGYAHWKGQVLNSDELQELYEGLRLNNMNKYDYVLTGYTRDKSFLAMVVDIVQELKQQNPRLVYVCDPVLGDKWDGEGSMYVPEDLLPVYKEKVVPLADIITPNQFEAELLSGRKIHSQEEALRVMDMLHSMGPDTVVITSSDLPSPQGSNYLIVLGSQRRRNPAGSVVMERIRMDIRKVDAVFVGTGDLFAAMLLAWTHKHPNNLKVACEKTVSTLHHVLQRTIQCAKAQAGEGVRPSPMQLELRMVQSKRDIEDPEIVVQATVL
The following applies: Ki (VI16742), PDXK IPI00013004.

Assay [2] concerns the target T2, cellular target proteins in HeLa cell lysate (Homo sapiens, UniProt O43427).
T2 sequence (O43427 1-364): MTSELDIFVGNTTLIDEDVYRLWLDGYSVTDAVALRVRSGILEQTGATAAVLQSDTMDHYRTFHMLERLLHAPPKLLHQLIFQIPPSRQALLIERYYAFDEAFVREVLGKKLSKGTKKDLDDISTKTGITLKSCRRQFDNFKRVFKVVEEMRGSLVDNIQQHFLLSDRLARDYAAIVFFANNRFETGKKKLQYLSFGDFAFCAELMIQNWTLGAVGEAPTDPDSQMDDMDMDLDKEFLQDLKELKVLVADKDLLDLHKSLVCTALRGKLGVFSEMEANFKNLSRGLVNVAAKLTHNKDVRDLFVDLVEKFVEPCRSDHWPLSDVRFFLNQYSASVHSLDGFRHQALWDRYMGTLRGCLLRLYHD
The following applies: Ki (VI16742), FIBP IPI00012443.

The target in assay [3] is cellular target proteins in HeLa cell lysate (Homo sapiens, UniProt O60583). The following applies: Ki (VI16742), CCNT2 IPI00030313.
The target of assay [4] is cellular target proteins in HeLa cell lysate (Homo sapiens, UniProt O60885). The following applies: Ki (VI16742), BRD4 IPI00440727.
Assay [5] addresses cellular target proteins in HeLa cell lysate (Homo sapiens, UniProt P20248). To be noted: Ki (VI16742), CCNA2 IPI00022865.
For assay [6], the target named is cellular target proteins in HeLa cell lysate (Homo sapiens, UniProt P24863). To be noted: Ki (VI16742), CCNC IPI00031076.
Assay [7] concerns the target cellular target proteins in HeLa cell lysate (Homo sapiens, UniProt P35270). To be noted: Ki (VI16742), SPR IPI00017469.
Assay [8] deals with cellular target proteins in HeLa cell lysate (Homo sapiens, UniProt P51617). To be noted: Ki (VI16742), IRAK1 IPI00293652.
The target in assay [9] is cellular target proteins in HeLa cell lysate (Homo sapiens, UniProt Q14289).
The target in assay [10] is cellular target proteins in HeLa cell lysate (Homo sapiens, UniProt Q16584). The following applies: Ki (VI16742), MLK3 (MAP3K11) IPI00000977.

Structures are written as SMILES. Where two headings read alike, the source gives them in different places.

Consider one molecule from patent publication US8959984B2, “Proteome-wide quantification of small molecule binding to cellular target proteins” (priority 2007, dated 2015).

By Ki is commonly meant the equilibrium dissociation constant of an inhibitor or competing ligand from its target. For the molecule `CC(C)n1c(=O)ccc2cnc(Nc3ccc(OCCN)cc3)nc21` [V16742], the Ki in assay [1] stood at 4.65 µM; in assay [2], 27.9 µM; in assay [3], 6.11 µM; in [4] it was 44.5 µM; in assay [5], 11.8 µM; in assay [6], 57 µM. The Ki in assay [7] turned out to be 70.8 µM; in assay [8], 10.9 µM; in [9], 25.7 µM; in assay [9] (Ki (VI16742), PYK2 (PTK2B) IPI00029702), 26.7 µM; in assay [10], 19.1 µM.
